{
  "source": "patent US12076328B2",
  "about": "(priority 2020, dated 2024)",
  "test": "Cut-off diameters of air jet milled powders used for blends",
  "settings": "micronized with Model 00 Jet-O-Mizer air jet mill",
  "data": [
    {"smiles": "CC(C)/N=c1\\cc2n(-c3ccc(Cl)cc3)c3ccccc3nc-2cc1Nc1ccc(Cl)cc1", "note": "[Clofazimine]", "values": [
      {"measurement": "D50 cut-off diameter", "result": 2.2, "unit": "μm"},
      {"measurement": "D90 cut-off diameter", "result": 5.1, "unit": "μm"}
    ]}
  ]
}
